The chains behind the UniProt entries cited, without tags or fusion partners. Residues count along the entry.
UniProt P05067, 672-711 limits assumed: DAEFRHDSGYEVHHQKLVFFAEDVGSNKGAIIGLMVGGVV

According to patent US20050288222A1, “Methods for enhancing the bioavailability of a drug” (priority 2000, published 2005):

Biological target: B-amyloid (Homo sapiens, UniProt P05067)
Test: KD of potent B-amyloid aggregation inhibitors (Table II)
Format: binding

Compound	Kd [nM]
CC(C)C[C@H](C(=O)N[C@@H](C(=O)N[C@H](Cc1ccccc1)C(=O)N[C@H](Cc1ccccc1)C(=O)N[C@H](CC(C)C)C(N)=O)C(C)C)N(C)C [PPI-1007, (CH3)2-lvffl-NH2]	0.86
CC(C)C[C@@H](N)C(=O)N[C@@H](C(=O)N[C@H](Cc1ccccc1)C(=O)NNC(=O)[C@@H](Cc1ccccc1)NC(=O)[C@H](NC(=O)[C@H](N)CC(C)C)C(C)C)C(C)C [PPI-1125, (H-lvf-NH-)2]	1.27
